Data: PubChem BioAssay (NCI)
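Where inhibition never reached the appropriate level, the endpoint shown equals the highest concentration tested. Otherwise, values were interpolated linearly from a five-concentration, 48-hour dose response in 96-well plates. Here, GI50 denotes the concentration required for 50% inhibition of growth. TGI: total growth inhibition.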

How the values were obtained:
Test in all cases: DTP human tumour cell line panel, 48 h
[1] = tested on: U251 CNS
[2] = tested on: NCI-H23 lung
[3] = tested on: DU-145 prostate
[4] = tested on: SK-OV-3 ovarian
[5] = tested on: K-562 leukemia
[6] = tested on: UACC-62 melanoma
[7] = tested on: NCI-H460 lung
[8] = tested on: EKVX NSCLC
[9] = tested on: RPMI-8226 leukemia
[10] = tested on: M14 melanoma
[11] = tested on: PC-3 prostate
[12] = tested on: IGROV1 ovarian
[13] = tested on: MDA-N
[14] = tested on: HCT-15 colon
[15] = tested on: 786-0 renal
[16] = tested on: MDA-MB-435
[17] = tested on: BT-549 breast
[18] = tested on: KM12 colon
[19] = tested on: TK-10 renal
[20] = tested on: HCT-116 colon
[21] = tested on: HL-60(TB) leukemia
[22] = tested on: LOX IMVI melanoma
[23] = tested on: MCF7 breast
[24] = tested on: SW-620 colon
[25] = tested on: SF-539 CNS
[26] = tested on: SN12C renal
[27] = tested on: SNB-75 CNS
[28] = tested on: OVCAR-5 ovarian
[29] = tested on: MDA-MB-231 breast
[30] = tested on: ACHN renal
[31] = tested on: CAKI-1 renal
[32] = tested on: MOLT-4 leukemia
[33] = tested on: T-47D breast
[34] = tested on: SF-268 CNS
[35] = tested on: CCRF-CEM leukemia
[36] = tested on: HOP-92 NSCLC
[37] = tested on: HT29 colon
[38] = tested on: OVCAR-3 ovarian
[39] = tested on: MALME-3M melanoma
[40] = tested on: SF-295 CNS
[41] = tested on: UO-31 renal
[42] = tested on: A498 renal
[43] = tested on: OVCAR-8 ovarian
[44] = tested on: COLO 205 colon
[45] = tested on: SR leukemia
[46] = tested on: A549 NSCLC
[47] = tested on: HS 578T breast
[48] = tested on: NCI/ADR-RES ovarian
[49] = tested on: SNB-19 CNS
[50] = tested on: NCI-H322M lung
[51] = tested on: UACC-257 melanoma
[52] = tested on: SK-MEL-5 melanoma
[53] = tested on: NCI-H522 lung
[54] = tested on: SK-MEL-2 melanoma
[55] = tested on: SK-MEL-28 melanoma
[56] = tested on: HOP-62 NSCLC

In the case of `ClCCN1CCCCC1CCl` (configuration not stated), the GI50 [1] is reported as over 100 µM, the TGI [1] is reported as over 100 µM and the GI50 [2] is reported as 32.1 µM. For the same compound, the TGI [2] was over 100 µM, the GI50 [3] was 60.7 µM and the TGI [3] was over 100 µM. The GI50 [4] was over 100 µM, the TGI [4] was over 100 µM and the GI50 [5] was over 100 µM. The TGI [5] was over 100 µM, the GI50 [6] was 44.3 µM and the TGI [6] was over 100 µM. The GI50 [7] was 46.8 µM, the TGI [7] was over 100 µM and the GI50 [8] was over 100 µM. The TGI [8] was over 100 µM, the GI50 [9] was 78.6 µM and the TGI [9] was over 100 µM. The GI50 [10] was 44.2 µM, the TGI [10] was over 100 µM and the GI50 [11] was over 100 µM. For the same compound, the TGI [11] was over 100 µM, the GI50 [12] was 38.2 µM and the TGI [12] was over 100 µM. It also gave a GI50 [13] of over 100 µM, a TGI [13] of over 100 µM and a GI50 [14] of over 100 µM. The TGI [14] was over 100 µM, the GI50 [15] was 22.3 µM and the TGI [15] was over 100 µM. The GI50 [16] was over 100 µM, the TGI [16] was over 100 µM and the GI50 [17] was 17.8 µM. The TGI [17] was over 100 µM, the GI50 [18] was over 100 µM and the TGI [18] was over 100 µM. For the same compound, the GI50 [19] was over 100 µM, the TGI [19] was over 100 µM and the GI50 [20] was over 100 µM. The TGI [20] was over 100 µM, the GI50 [21] was 24.8 µM and the TGI [21] was over 100 µM. The GI50 [22] was 47.1 µM, the TGI [22] was over 100 µM and the GI50 [23] was 48.2 µM. For the same compound, the TGI [23] was over 100 µM, the GI50 [24] was over 100 µM and the TGI [24] was over 100 µM. The GI50 [25] was 35.7 µM, the TGI [25] was over 100 µM and the GI50 [26] was 9.84 µM. For the same compound, the TGI [26] was over 100 µM, the GI50 [27] was 81.7 µM and the TGI [27] was over 100 µM. For the same compound, the GI50 [28] was over 100 µM, the TGI [28] was over 100 µM and the GI50 [29] was over 100 µM. The TGI [29] was over 100 µM, the GI50 [30] was 18.6 µM and the TGI [30] was over 100 µM. For the same compound, the GI50 [31] was 24.9 µM, the TGI [31] was over 100 µM and the GI50 [32] was 16.4 µM. It also gave a TGI [32] of over 100 µM, a GI50 [33] of 89.4 µM and a TGI [33] of over 100 µM. It also gave a GI50 [34] of 40.7 µM, a TGI [34] of over 100 µM and a GI50 [35] of 15 µM. For the same compound, the TGI [35] was over 100 µM, the GI50 [36] was 53.3 µM and the TGI [36] was over 100 µM. It also gave a GI50 [37] of over 100 µM, a TGI [37] of over 100 µM and a GI50 [38] of over 100 µM. For the same compound, the TGI [38] was over 100 µM, the GI50 [39] was 46.5 µM and the TGI [39] was over 100 µM. The GI50 [40] was 35.9 µM, the TGI [40] was over 100 µM and the GI50 [41] was 67 µM. The TGI [41] was over 100 µM, the GI50 [42] was over 100 µM and the TGI [42] was over 100 µM. For the same compound, the GI50 [43] was over 100 µM, the TGI [43] was over 100 µM and the GI50 [44] was over 100 µM. The TGI [44] was over 100 µM, the GI50 [45] was 4.46 µM and the TGI [45] was 44.5 µM. The GI50 [46] was 32.6 µM, the TGI [46] was over 100 µM and the GI50 [47] was over 100 µM. It also gave a TGI [47] of over 100 µM, a GI50 [48] of over 100 µM and a TGI [48] of over 100 µM. For the same compound, the GI50 [49] was over 100 µM, the TGI [49] was over 100 µM and the GI50 [50] was over 100 µM. For the same compound, the TGI [50] was over 100 µM, the GI50 [51] was over 100 µM and the TGI [51] was over 100 µM. It also gave a GI50 [52] of over 100 µM, a TGI [52] of over 100 µM and a GI50 [53] of 20.3 µM. It also gave a TGI [53] of over 100 µM, a GI50 [54] of over 100 µM and a TGI [54] of over 100 µM. The GI50 [55] was over 100 µM, the TGI [55] was over 100 µM and the GI50 [56] was 43.5 µM. It also gave a TGI [56] of over 100 µM.
